Values of other authors in patent US20220280611A1, “SOLID COMPOSITION COMPRISING A PYY COMPOUND AND A SALT OF N-(8-(2- HYDROXYBENZOYL)AMINO)CAPRYLIC ACID” (Novo Nordisk A/S, priority 2019, published 2022).

Conditions: in pigs; cited from earlier work

Substance: PYY(3-36): PYY(1-36) cleaved by dipeptidyl peptidase IV; hPYY(3-36), SEQ ID NO:2
- half-life: < 30 min
